Experimental data published in patent US6752986B2, “Composition and methods for affecting metallocorrinoid uptake” (The Cleveland Clinic Foundation, priority 2001, dated 2004).

Columns and labels:
[1] = system: NIH-OVCAR-3 cells; experiment: Flow cytometric analysis of Annexin V positive cells (% apoptosis); type: cell-based, human; details: NIH-OVCAR-3, IL-2 250 U/mL with NO-Cbl, 48 hrs
Procedure: A flow cytometric analysis of Annexin V positive cells was performed to assess the % apoptosis (programmed cell death) of NIH-OVCAR-3 cells treated with NO-Cbl, alone and in combination with IFN-β. This is illustrated in FIG. 4 The ID25 was used for both NO-Cbl (10 uM) and IFN-β (20 U/mL) for 48 hrs.

[2] = system: NIH-OVCAR-3 ovarian carcinoma; experiment: SRB anti-proliferative cell survival assay, NIH-OVCAR-3; type: cell-based, human; details: concentration used in the Annexin V assay for 48 hrs
Procedure: FIG. 1 illustrates NIH-OVCAR-3 ovarian carcinoma evaluated in accordance with the present invention after 72-hrs growth. […] Single agent and combination drug effects were assessed to determine whether IFN-β enhanced NO-Cbl activity. […] These matters are shown in the median effect analysis shown in FIG. 2 (similar to isobologram analysis) indicated synergy (a combination index <1) between NO-Cbl and IFN-β at all 3 doses tested.
Cells (2×10^3) were seeded in 96-well plates. Data points represent mean of eight replicates. (n=8). A control plate was fixed 4 hr after seeding (to allow cells to attach) to determine the initial seeding density (Aini). This was defined as 0% growth. To the wells of the seeded experimental plate, IFN-β was added and incubation continued for 3-5 days. Untreated cell controls were included. Growth obtained with this control was defined as 100% (Afin). To determine cell number, cells were fixed with 10% trichloroacetic acid at 4° C. for 1 h. They were stained with 0.4% sulforhodamine B prepared in 1% acetic acid at 25° C. for 1 h (27). The wells were washed with 1% acetic acid. Bound dye was eluted with 100 μl of 10 mM Tris-HCl, ph 10.5 and quantitated in a microplate reader at 570 nm. Growth in IFN-β-treated wells (experimental=exp) was expressed as a percentage of untreated control growth (mean±SEM).
%Control growth=100%×(Aexp−Aini)/(Afin−Aini) […]

[3] = system: TCII receptor; experiment: Western blot of TCII receptor in NIH-OVCAR-3 cell extracts; type: cell-based, human; details: NIH-OVCAR-3 cells, IFN β 200 u/ml at 4 and 16 hrs
Procedure: To assess the effect of IFNβ on TCII-R expression, a western blot analysis was performed on extracts from NIH-OVCAR-3 cells (ovarian carcinoma) as shown in FIG. 3. Lane 1 is untreated. Lanes 2 and 3 are IFN β treated (200 u/ml) at 4 and 16 hrs respectively. Lanes 4 and 5 are liver and kidney extracts respectively, and serve as a positive control, since TCII-R is abundant in these tissues. […] The co-delivery of IFN-β and nitrosylcobalamin appears to result in synergistic destruction of tumor cells as a result of increased TCII receptor expression or activity.
Cells in culture were treated with vehicle (untreated) or with IFN-β (500 U/ml) for 4 and 16 hrs, washed twice in PBS, harvested by scraping, and lysed in buffer containing 100 mM saline-TRIS. Total cell extracts were homogenized prior to loading. Protein amounts in clarified cell extracts were determined using Bio-Rad protein assay reagent. Equivalent amounts of protein (100 μg) were loaded on 10% polyacrylamide SDS separating gels and electrophoresis was performed using glycine-SDS buffer. Following electrophoresis, gels were equilibrated in transfer buffer 30 min at 25° C., and proteins transferred to nitrocellulose membrane.
All steps were performed at 25° C. […] Excess detection reagent was drained and the membrane was placed protein side down on plastic wrap and exposed to film for empirically determined lengths of time.

[4] = system: TCII-R; experiment: Immunohistochemical analysis of TCII-R in NIH-OVCAR-3 tumors grown in nude mice; type: in vivo; details: NIH-OVCAR-3 tumors in nude mice, human IFN-β 10^5 units daily for three days, versus PBS control
Description: The control group received PBS and the treated group received human IFN-β 10^5 units daily for three days. Tumors were harvested, paraffin embedded, and sections were stained with rabbit polyclonal anti-TCII-R antibody, (provided by Dr. Seetharam's lab, Medical College of Wisconsin). FIG. 5 depicts these treatments. The left panel is an untreated tumor whereas the right panel is a tumor from a mouse that received IFN-β. […] The increased expression of the TCII receptor allows for increased uptake of NO-Cbl, consistent with the synergy observed in the SRB and Annexin V assays upon NO-Cbl co-treatment with IFN-β.
(§1) In-vivo IFN-β treatment of nude mice inoculated with tumors (e.g. WM9—human melanoma or NIH-OVCAR-3—ovarian carcinoma) and Immunohistochemical analysis: Nude mice (n=2 each group), were inoculated with tumors (e.g. WM9—human melanoma or NIH-OVCAR-3—ovarian carcinoma), subcutaneously (s.c.), one tumor on each flank. The tumors were grown until 3-5 mm in diameter. Human IFN-β (10^5 units) was administered s.c. for three days to the treatment animals. On day four, animals were sacrificed and tumors were fixed in formalin and paraffin embedded. The sections were analyzed using standard immunohistochemical techniques. Anti-TCII-R was used as the primary antibody.

[5] = system: TCII-R; experiment: Immunohistochemical analysis of TCII-R in WM9 tumors grown in nude mice; type: in vivo; details: human IFN-β 10^5 units daily for three days, versus PBS control
Description: The control group received PBS and the treated group received human IFN-β 10^5 units daily for three days. Tumors were harvested, paraffin embedded, and sections were stained with rabbit polyclonal anti-TCII-R antibody, (provided by Dr. Seetharam's lab, Medical College of Wisconsin). FIG. 8 depicts these treatments. The upper two panels are untreated tumors whereas the lower panels are tumors from mice that received IFN-β.
as §1

Molecule: interleukin-2 [IL-2]
- effect on NO-Cbl induced apoptosis (Annexin V positive cells) [1]: protective against the effects of NO-Cbl

B1: interferon-β (protein, UniProt P01574 22-187, looked up)
Interferon beta: MSYNLLGFLQRSSNFQCQKLLWQLNGRLEYCLKDRMNFDIPEEIKQLQQFQKEDAALTIYEMLQNIFAIFRQDSSSTGWNETIVENLLANVYHQINHLKTVLEEKLEKEDFTRGKLMSSLHLKRYYGRILHYLKAKEYSHCAWTIVRVEILRNFYFINRLTGYLRN
notes: cytokine; human IFN-β
- ID25 [2]: 20 U/mL
- expression of the TCII receptor (monomer 62 kDa, dimer 124 kDa) [3]: increased expression of the TCII-R
- expression of the TCII receptor (monomer 62 kDa, dimer 124 kDa) ([3]; listed as IFN β): increase in the expression of the TCII receptor
- expression of TCII-R (anti-TCII-R staining of tumor sections) [4]: increased expression of TCII-R
- expression of TCII-R (anti-TCII-R staining of tumor sections) [5]: increased expression of TCII-R
